Legend:
[1] = mesylate; for CI (Compressibility Index or Carr Index): 100×[(ρtapped−ρbulk)/ρtapped]; for HR (Hausner ratio): tapped density divided by bulk density
[2] = heating at 80° C. for 72, 96 or 144 hours, and refluxing in isopropanol for 30 hours; cited from earlier work

Structure (SMILES)	CI (Compressibility Index or Carr Index) [1]	HR (Hausner ratio) [1]	Chemical stability [2]
C#CCN[C@@H]1CCc2ccccc21.CS(=O)(=O)O [Example 1, R-(+)-N-propargyl-1-aminoindan mesylate]	30	1.43	
C#CCN[C@@H]1CCc2ccccc21.CS(=O)(=O)O [Example 2, R-(+)-N-propargyl-1-aminoindan mesylate]	29	1.41	
C#CCN[C@@H]1CCc2ccccc21.CS(=O)(=O)O [Example 3, R-(+)-N-propargyl-1-aminoindan mesylate]	26	1.35	
C#CCN[C@@H]1CCc2ccccc21.CS(=O)(=O)O [Example 4, R-(+)-N-propargyl-1-aminoindan mesylate]	30	1.43	
C#CCN[C@@H]1CCc2ccccc21.CS(=O)(=O)O [Reference Example 1, R-(+)-N-propargyl-1-aminoindan mesylate, reference compound]	42	1.72	
C#CCN[C@@H]1CCc2ccccc21.CS(=O)(=O)O [Reference Example 2, R-(+)-N-propargyl-1-aminoindan mesylate, reference compound]	40	1.67	
C#CCN[C@@H]1CCc2ccccc21.CS(=O)(=O)O [rasagiline mesylate, R-(+)-N-propargyl-1-aminoindan mesylate]			excellent chemical stability
